Reference: patent US20130142847A1, “S-ADENOSYLMETHIONINE FORMULATIONS WITH ENHANCED BIOAVAILABILITY” (Methylation Sciences, Inc., priority 2009, published 2013)

What was measured:
Caco-2 cell monolayers [1] = test: 24 hour resistance recovery test (Caco-2 cell recovery post treatment); format: cell-based, human; conditions: SAMe 2 mM alone, listed as SAMe control
Protocol: As part of these in vitro studies, the degree of Caco-2 cell recovery (as observed by degree of permeability and cell attachment 24 hours post treatment with each tight junction modulator) was also investigated. This 24 hour resistance recovery test is an indirect measure of epithelial cell disruption and data supporting a trend toward less in vitro disruption may be associated with less impact in vivo.

Caco-2 cell monolayers [2] = test: Permeability of SAMe across Caco-2 cell monolayers (Example 3); conditions: for Papp_a-b Apical to Basal: apical to basolateral; for Papp_b-a Basal to Apical: basolateral to apical
Caco-2 cell monolayers [3] = test: Caco-2 permeability of SAMe in the presence of tight junction modulators (Examples 3a, 3c)
[4] = HBSS pH 7.4, 120 minute incubation, SAMe salt 2 mM

adenosylmethionine disulfate-p-toluenesulfonate [SAMe disulfate tosylate]
TEER Resist. 24 hour post assay (Caco-2 cell monolayers [1]): 2280 ohms and 2181 ohms and 1440 ohms and 1975 ohms and 1871 ohms and 1740 ohms | Papp_a-b Apical to Basal (Caco-2 cell monolayers [2]; Calcium-free medium): 9.6e-06 cm/s | Papp_b-a Basal to Apical (Caco-2 cell monolayers [2]; Calcium-free medium): 6.48e-06 cm/s | Papp_a-b Apical to Basal (Caco-2 cell monolayers [2]; [4]): 4.1e-07 cm/s | Papp_b-a Basal to Apical (Caco-2 cell monolayers [2]; [4]): 5e-07 cm/s | Fold Transport Increase (Caco-2 cell monolayers [3]; SAMe 2 mM alone (Table 7)): 1X | Fold Transport Increase (Caco-2 cell monolayers [3]; SAMe 2 mM alone, run 2): 1X | Permeability Coefficient (Caco-2 cell monolayers [3]; SAMe 2 mM alone, run 2): 1.4e-07 cm/s | Fold Transport Increase (Caco-2 cell monolayers [3]; SAMe 2 mM alone, run 3): 1X | Permeability Coefficient (Caco-2 cell monolayers [3]; SAMe 2 mM alone, run 3): 1.6e-06 cm/s | Fold Transport Increase (Caco-2 cell monolayers [3]; SAMe 2 mM alone, run 4): 1X | Permeability Coefficient (Caco-2 cell monolayers [3]; SAMe 2 mM alone, run 4): 1.6e-06 cm/s

Where “and” joins values, the source holds several entries; their conditions need not be identical. Equal values may be shown once.
